{"sequences": {"note": "Chains of the proteins cited; added tags and fusions are not shown. Lines headed by an entry give the natural chain unless they say otherwise; changes in a name come on top.", "UniProt P41145": "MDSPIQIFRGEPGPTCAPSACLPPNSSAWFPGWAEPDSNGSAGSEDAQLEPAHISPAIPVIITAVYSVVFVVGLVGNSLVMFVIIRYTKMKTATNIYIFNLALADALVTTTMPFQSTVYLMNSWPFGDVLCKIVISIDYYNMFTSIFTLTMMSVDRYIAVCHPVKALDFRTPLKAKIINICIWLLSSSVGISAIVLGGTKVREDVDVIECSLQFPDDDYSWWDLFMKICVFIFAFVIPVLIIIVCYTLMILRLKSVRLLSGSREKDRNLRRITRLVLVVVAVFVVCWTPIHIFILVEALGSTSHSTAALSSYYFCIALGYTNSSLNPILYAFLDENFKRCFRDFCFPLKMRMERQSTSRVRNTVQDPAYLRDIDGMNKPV"}, "source": "ChEMBL document CHEMBL3992491", "about": "“Discovery, structure-activity relationship studies, and anti-nociceptive effects of N-(1,2,3,4-tetrahydro-1-isoquinolinylmethyl)benzamides as novel opioid receptor agonists” (Eur J Med Chem, 2017)", "molecular_target": "Kappa-type opioid receptor (Homo sapiens, UniProt P41145)", "assay": "Agonist activity at human KOR expressed in HEK293 cells assessed as inhibition of forskolin-induced adenylyl cyclase-mediated cAMP accumulation after 30 mins by HTRF assay", "format": "functional, cell-based", "data": [{"smiles": "CN(C(=O)Cc1ccc(Cl)c(Cl)c1)C1CCCCC1N1CCCC1", "note": "(stereo unspecified)", "values": [{"measurement": "Imax", "result": 91.4, "unit": "%"}]}]}
